Test system: primary human macrophages
Test: Macrophage differentiation assay, cell surface marker expression by flow cytometry
Assay type: cell-based
Conditions: MFI fold-change normalized to M0; chemerin9 10 ng/mL 72 hours; IFNg 10 ng/ml plus LPS 10 ng/ml; IL-10 10 ng/ml; n=4 donors; Fig. 1a

B1: IL-10: reference signal molecule to induce the M2-like macrophages (protein, UniProt P22301 19-178, looked up)
Interleukin-10: SPGQGTQSENSCTHFPGNLPNMLRDLRDAFSRVKTFFQMKDQLDNLLLKESLLEDFKGYLGCQALSEMIQFYLEEVMPQAENQDPDIKAHVNSLGENLKTLRLRLRRCHRFLPCENKSKAVEQVKNAFNKLQEKGIYKAMSEFDIFINYIEAYMTMKIRN
HLA-DR expression (in words): downregulation

Reference: doi:10.1101/2023.06.09.544295 (bioRxiv, 2023)
